Sequences of proteins named here, by UniProt entry; tags and fusion partners are left off. Residues count along the entry.
UniProt Q00959, 23-1464: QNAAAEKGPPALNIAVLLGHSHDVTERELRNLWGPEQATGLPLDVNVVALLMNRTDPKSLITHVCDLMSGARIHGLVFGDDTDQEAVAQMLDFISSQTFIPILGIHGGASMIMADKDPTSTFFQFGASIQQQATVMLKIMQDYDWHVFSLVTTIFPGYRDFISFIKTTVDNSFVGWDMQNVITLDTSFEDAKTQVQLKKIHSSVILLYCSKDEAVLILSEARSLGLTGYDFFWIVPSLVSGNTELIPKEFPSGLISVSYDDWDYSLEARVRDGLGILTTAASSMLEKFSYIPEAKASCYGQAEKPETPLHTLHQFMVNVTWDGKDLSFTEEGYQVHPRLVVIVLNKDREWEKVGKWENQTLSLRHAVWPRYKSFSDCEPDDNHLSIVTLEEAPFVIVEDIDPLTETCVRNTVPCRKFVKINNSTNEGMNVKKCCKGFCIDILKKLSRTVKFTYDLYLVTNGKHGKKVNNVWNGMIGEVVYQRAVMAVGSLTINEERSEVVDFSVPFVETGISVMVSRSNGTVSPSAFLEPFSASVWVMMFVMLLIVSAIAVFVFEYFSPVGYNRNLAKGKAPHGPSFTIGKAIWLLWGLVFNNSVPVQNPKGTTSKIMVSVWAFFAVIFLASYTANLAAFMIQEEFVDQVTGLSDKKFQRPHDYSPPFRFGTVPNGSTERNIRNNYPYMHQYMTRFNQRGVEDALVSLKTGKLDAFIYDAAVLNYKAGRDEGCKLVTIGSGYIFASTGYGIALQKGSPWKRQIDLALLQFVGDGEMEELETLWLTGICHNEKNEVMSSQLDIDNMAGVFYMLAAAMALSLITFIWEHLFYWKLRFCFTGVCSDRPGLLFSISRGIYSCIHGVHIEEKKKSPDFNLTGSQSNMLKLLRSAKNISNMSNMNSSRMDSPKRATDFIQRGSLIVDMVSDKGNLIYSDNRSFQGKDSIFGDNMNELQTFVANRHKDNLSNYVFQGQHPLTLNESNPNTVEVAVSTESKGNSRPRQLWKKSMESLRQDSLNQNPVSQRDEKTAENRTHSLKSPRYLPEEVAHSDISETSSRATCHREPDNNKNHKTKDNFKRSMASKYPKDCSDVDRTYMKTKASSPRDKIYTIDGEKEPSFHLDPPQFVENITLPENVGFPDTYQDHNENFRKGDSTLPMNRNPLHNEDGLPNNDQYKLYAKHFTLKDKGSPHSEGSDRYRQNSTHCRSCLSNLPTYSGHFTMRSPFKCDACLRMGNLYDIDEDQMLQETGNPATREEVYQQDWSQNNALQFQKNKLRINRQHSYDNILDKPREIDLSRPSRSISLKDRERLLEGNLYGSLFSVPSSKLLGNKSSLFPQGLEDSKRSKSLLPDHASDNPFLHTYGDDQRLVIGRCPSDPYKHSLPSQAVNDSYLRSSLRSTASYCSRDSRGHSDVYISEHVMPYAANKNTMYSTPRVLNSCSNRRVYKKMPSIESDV

According to publication PMC5441875 (eLife, 2017):

Target: WT GluN1/GluN2A receptors (Rattus norvegicus, UniProt P35439+Q00959)
Procedure: Receptor functionality and light-sensitivity were assessed in patch-clamp recordings of lifted whole cells 24–72 hr post transfection. Positively transfected cells were visualized by GFP-fluorescence. […] The osmolarity was 270–290 mOsm. The cells were continuously perfused with a Ringer solution containing (in mM): 140 NaCl, 2.8 KCl, 1 CaCl2, 0.01 DTPA, 10 HEPES and five sucrose (pH 7.3 with NaOH). The osmolarity was 290 mOsm. DTPA was added to prevent tonic inhibition of NMDARs by ambient zinc ([Paoletti et al., 1997]). Currents were recorded using an Axopatch 200B amplifier and a Digidata 1550A interface (Molecular Devices), sampled at 10–20 kHz, and low-pass filtered at 2–5 kHz. The cells were voltage-clamped at −60 mV. pClamp 10.5 (Molecular Devices) was used to acquire the data. […]
Agonists or other pharmacological substances were applied using a multi-barrel rapid solution exchanger system (RSC 200, Bio-Logic). […] The agonist deactivation kinetics were assessed by including the converse co-agonist to the control solution. […]
Computer-controlled light pulses during electrophysiological recordings were provided from sensitive high power LEDs (Prizmatix). […] The LED port was directly coupled via a microscope adaptor to the fluorescence port of an inverted DIAPHOT 300 Nikon microscope. […]
The weighted deactivation time constants were calculated with: τw =( Af/(Af+As))*τf + (As /(Af + As))*τs.

## NCC(=O)O [glycine]
UV
  mean weighted deactivation time constant τdeact,UV: 166 ± 30 ms
dark, 800 ms agonist jumps
  mean weighted deactivation time constant τdeact,DARK: 184 ± 16 ms
